The numbers were not newly measured in publication PMC7765948, “Spadin Modulates Astrocytic Passive Conductance via Inhibition of TWIK-1/TREK-1 Heterodimeric Channels” (International Journal of Molecular Sciences, 2020), which cites them from elsewhere.

The series relates to TREK-1/TREK-2 heterodimeric channels. The note with it: cited from earlier work. The source says: It has been reported that spadin is highly specific for the TREK-1 channel, and that other TREK family members, such as TREK-2 and TRAAK homodimer channels, are not sensitive to spadin [36, 37]. […] Therefore, we proposed two possibilities to explain how the TWIK-1 channel is affected by spadin in astrocytes. First, the TWIK-1 channel may be regulated by spadin in a direct manner, similar to the TREK-1 channel. […] The activity of TWIK-1 homodimeric channels was not modulated by spadin, but concatenated TWIK-1-TREK-1 heterodimeric channels were inhibited (Figure 5). Since K2P heterodimeric channels are known to be regulated by regulators specific only for single subunit isoforms, even if the TWIK ...

Molecules are shown by their SMILES.

In the case of `CC[C@H](C)[C@H](NC(=O)[C@@H]1CCCN1C(=O)CNC(=O)[C@H](CO)NC(=O)[C@H](Cc1c[nH]c2ccccc12)NC(=O)[C@H](CCCNC(=N)N)NC(=O)[C@@H]1CCCN1C(=O)[C@H](CC(C)C)NC(=O)[C@@H]1CCCN1C(=O)[C@H](C)NC(=O)[C@@H](N)Cc1ccc(O)cc1)C(=O)NCC(=O)N[C@H](C(=O)N[C@@H](CO)C(=O)N[C@@H](Cc1c[nH]c2ccccc12)C(=O)NCC(=O)N[C@@H](CC(C)C)C(=O)N[C@@H](CCCNC(=N)N)C(=O)O)C(C)C` [spadin], the “inhibition of TREK-1/TREK-2 heterodimeric channels” value is “can also inhibit”. In addition, for the setting “acid-induced”, the “acid-induced activity of TREK-1/TREK-2 tandem heterodimeric channels” value is on record as “reduces acid-induced activity”.
